The source of these data is paper PMC11661604.

Assay in all cases: SPR
Conditions in all cases: Fc fusion

The target in assay [1] is native Semliki Forest virus (SFV) virion (Semliki Forest virus).
Assay [2] shares this target. The source holds these as a separate data set.
Assay [3] has the same target. The source holds these as a separate data set.

For LA5-Fc (from UniProt P98155-1 190-237), the Kd in assay [1] came out at 15 µM; in assay [2] it was 14.1 µM; in assay [3], 15.7 µM.

The Kd is a measure of binding affinity in units of concentration.
